Test results taken from patent US20110207796A1, “ALPHA-SYNUCLEIN KINASE” (Elan Pharma International Limited, priority 2008, published 2011).

The chains behind the UniProt entries cited, without tags or fusion partners. Where a name states a change or a piece, a line headed by the entry shows the natural chain unless it says otherwise.
UniProt Q9NYY3: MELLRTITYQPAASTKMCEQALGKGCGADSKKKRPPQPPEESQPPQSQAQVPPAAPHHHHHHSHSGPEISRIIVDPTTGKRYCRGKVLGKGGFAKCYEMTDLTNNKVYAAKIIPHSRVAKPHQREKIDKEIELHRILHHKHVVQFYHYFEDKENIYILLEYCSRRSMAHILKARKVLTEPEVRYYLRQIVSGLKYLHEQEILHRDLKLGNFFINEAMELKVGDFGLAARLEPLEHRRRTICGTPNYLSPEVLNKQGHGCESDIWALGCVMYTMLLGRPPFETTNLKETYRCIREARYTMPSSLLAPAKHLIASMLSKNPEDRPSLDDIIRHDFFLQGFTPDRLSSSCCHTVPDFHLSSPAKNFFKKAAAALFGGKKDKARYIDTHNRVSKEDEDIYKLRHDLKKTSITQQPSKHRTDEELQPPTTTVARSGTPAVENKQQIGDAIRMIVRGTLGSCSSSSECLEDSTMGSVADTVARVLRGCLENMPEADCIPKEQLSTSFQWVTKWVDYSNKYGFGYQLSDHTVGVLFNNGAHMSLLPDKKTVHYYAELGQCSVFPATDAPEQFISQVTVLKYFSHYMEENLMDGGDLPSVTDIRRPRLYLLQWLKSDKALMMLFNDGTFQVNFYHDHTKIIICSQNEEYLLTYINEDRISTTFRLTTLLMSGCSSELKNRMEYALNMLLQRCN
UniProt Q9H4B4: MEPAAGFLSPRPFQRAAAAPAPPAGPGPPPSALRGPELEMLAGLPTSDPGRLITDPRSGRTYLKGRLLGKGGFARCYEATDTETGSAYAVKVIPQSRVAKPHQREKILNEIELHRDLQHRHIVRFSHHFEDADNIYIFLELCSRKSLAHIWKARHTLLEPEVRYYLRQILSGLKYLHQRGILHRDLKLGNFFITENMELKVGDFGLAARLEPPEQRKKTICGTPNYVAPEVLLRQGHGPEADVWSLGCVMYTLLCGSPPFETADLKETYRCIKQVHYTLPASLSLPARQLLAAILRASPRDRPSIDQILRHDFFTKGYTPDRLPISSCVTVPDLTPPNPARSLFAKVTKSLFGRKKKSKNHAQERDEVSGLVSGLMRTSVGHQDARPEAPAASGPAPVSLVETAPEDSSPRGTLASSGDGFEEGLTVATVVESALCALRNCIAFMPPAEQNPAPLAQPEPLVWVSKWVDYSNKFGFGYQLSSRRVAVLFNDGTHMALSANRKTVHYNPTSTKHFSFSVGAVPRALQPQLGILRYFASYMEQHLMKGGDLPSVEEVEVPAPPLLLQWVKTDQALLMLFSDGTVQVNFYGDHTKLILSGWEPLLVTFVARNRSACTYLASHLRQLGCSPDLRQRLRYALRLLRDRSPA

Tests used:
PLK2 [1] = target: T1, PLK2 (Homo sapiens, UniProt Q9NYY3); experiment: in vitro biochemical assay of PLK2-driven synuclein phosphorylation
PLK3 = target: T2, PLK3 (Homo sapiens, UniProt Q9H4B4); experiment: HEK-293 cells overexpressing synuclein and PLK3, inhibition of synuclein phosphorylation; assay type: cell-based; settings: HEK-293, Table 22
T2 construct: expressed in transfected cells; host or cells: HEK-293

PLK2 [2] = target: T1, PLK2; experiment: HEK-293 cells overexpressing synuclein and PLK2, inhibition of synuclein phosphorylation; assay type: cell-based; parameters: expressed in transfected cells; host or cells: HEK-293

CC[C@@H]1C(=O)N(C)c2cnc(Nc3ccc(C(=O)NC4CCN(C)CC4)cc3OC)nc2N1C1CCCC1 [BI 2536, 4-[[(7r)-8-cyclopentyl-7-ethyl-5,6,7,8-tetrahydro-5-methyl-6-oxo-2-pteridinyl]amino]-3-methoxy-n-(1-methyl-4-piperidinyl)-benzamide]
1: rank order of potency, Straight Biochemical (PLK2 [1]) | Rank Order of Potency Based on Percent Inhibition of Synuclein Phosphorylation, Synuclein + PLK3 (PLK3) | rank order of potency, Over-Expressed PLK2 (293) (PLK2 [2]; 293 cells, Table 19) | Rank Order of Potency Based on Percent Inhibition of Synuclein Phosphorylation, Synuclein + PLK2 (PLK2 [2]; HEK-293, Table 22)
